The values that follow come from PubChem BioAssay AID1565 (Sanford-Burnham Center for Chemical Genomics, 2009).

By UniProt entry, the sequences of proteins in these tests, tags left out.
UniProt Q8TCT1, whole entry: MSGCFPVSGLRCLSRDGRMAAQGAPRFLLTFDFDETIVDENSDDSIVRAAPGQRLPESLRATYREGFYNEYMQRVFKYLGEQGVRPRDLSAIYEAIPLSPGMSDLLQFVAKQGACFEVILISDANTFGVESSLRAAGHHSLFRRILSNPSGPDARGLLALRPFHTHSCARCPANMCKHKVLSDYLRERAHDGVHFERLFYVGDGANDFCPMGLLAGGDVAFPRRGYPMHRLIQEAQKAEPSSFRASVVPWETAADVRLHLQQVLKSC

This is a selection; strong and weak results do not stand in their true shares. Active and inactive are the calls of the source. Rule as the data show it: active = inhibition above about 60%; inactive = the rest.

The target of the test is Phosphoethanolamine/phosphocholine phosphatase (Homo sapiens) (UniProt Q8TCT1). Put plainly: PubChem AID 1565. As to conditions: recombinant PHOSPHO1, absorbance phosphatase assay; at 13.3 µM; hits give high values.
The term inhibition denotes the change of the read-out against control, counted positive when it falls. As for `N#Cc1ccc(C(=O)NCC2(N3CCCCC3)CCCCC2)cc1`, the inhibition is inactive: 35.9%. Take `CC(C)(C)OC(=O)N1CCC(N(C(=O)c2ccccc2)c2ccc(Cl)cc2)CC1`: the inhibition is inactive: 29.2%.

Turning to `CN(C)C1(CNC(=O)c2cccc(C#N)c2)CCCCC1`, the inhibition is inactive: 44.2%. Regarding `c1ccc(CN2CCC(Nc3ccccc3)CC2)cc1`, the inhibition was inactive: -6.8%.

`CCCN1CCC(Nc2cc(OC)cc(OC)c2)CC1`: the inhibition is inactive: 23.9%. In the case of `COc1ccc(C(=O)NCC2(N3CCOCC3)CCCCC2)cc1OC`, the inhibition is inactive: 9.1%. Take `O=C(OC1CN2CCC1CC2)C1c2ccccc2C=Cc2ccccc21` (stereo not given): the inhibition is inactive: 30.8%. In the case of `CCOC(=O)N1CCC(Nc2ccc(C)cc2)CC1` it was inactive: 23.9%; in that of `N/C(=N\O)c1c(N)no[n+]1[O-]`, inactive: 6.8%. `CC(C)(C)OC(=O)N1CCC(Nc2ccccc2)CC1`: the inhibition was inactive: 11.4%. The figure for `O=C(O)C1(Nc2ccccc2)CCN(Cc2ccccc2)CC1` is inactive: 39.9%; for `CCCOc1ccc(C(=O)NCC2(N(C)C)CCCCC2)cc1` it is inactive: 19.7%. The figure for `CCOc1ncccc1C(=O)NCC1(N2CCOCC2)CCCCC1` is inactive: -38.9%; for `CN1CCC(Nc2ccc(F)c(Cl)c2)CC1` it is inactive: -1.3%; for `CCCOc1ccc(C)cc1CN(CCCl)CCCl` it is inactive: 36.8%. The figure for `COc1cc(OC)cc(C(=O)NCC2(N3CCOCC3)CCCCC2)c1` is inactive: 24.4%; for `COc1cccc(C(=O)N(c2cc(C)cc(C)c2)C2CCN(C(=O)OC(C)(C)C)CC2)c1` it is inactive: 11.4%; for `CCC(CO)(C(=O)OC1CN2CCC1CC2)c1ccccc1` (stereo not given) it is inactive: -0.8%. In the case of `Fc1ccccc1NC1CCN(Cc2ccccc2)CC1`, the inhibition is inactive: 9.2%.

Turning to `COc1cc(OC)cc(C(=O)NCC2(N3CCCCC3)CCCCC2)c1`, the inhibition was inactive: 14.2%. The figure for `CN(C)c1ccc(C(=O)NCC2(N3CCCCC3)CCCCC2)cc1` is inactive: 8.4%.

`CCN1CCC(Nc2cccc(F)c2)CC1`: the inhibition was inactive: 4.7%. The figure for `O=C(NCC1(N2CCCCC2)CCCCC1)c1ccc(F)cc1` is inactive: 40.9%; for `COc1ccc(NC2CCN(CCc3ccccc3)CC2)c(OC)c1` it is inactive: 16%. The figure for `CCOC(=O)N1CCC(Nc2ccc(F)cc2)CC1` is inactive: 25.3%. For `CCOc1ccc(C)cc1CN(CCCl)CCCl`, the inhibition is inactive: 20.3%. The figure for `COc1cc(C(=O)NCC2(N(C)C)CCCCC2)ccc1OC(F)F` is inactive: 33%. The figure for `Cc1ccc(OCC(C)C)c(CN(CCCl)CCCl)c1` is inactive: 36.8%. The figure for `CSc1ccccc1C(=O)NCC1(N2CCCCC2)CCCCC1` is inactive: 31%. As for `COc1ccc(C(=O)NCC2(N3CCCCC3)CCCCC2)cc1`, the inhibition was inactive: 24%.
